Results: US20170157260A1, “Glycosylated Polypeptide and Drug Composition Containing said Polypeptide” (Glytech, Inc., priority 2011, published 2017)
Where two headings read alike, the source gives them in different places.

By UniProt entry, the sequences of proteins in these tests, tags left out. Where a name states a change or a piece, a line headed by the entry shows the natural chain unless it says otherwise.
UniProt P30874: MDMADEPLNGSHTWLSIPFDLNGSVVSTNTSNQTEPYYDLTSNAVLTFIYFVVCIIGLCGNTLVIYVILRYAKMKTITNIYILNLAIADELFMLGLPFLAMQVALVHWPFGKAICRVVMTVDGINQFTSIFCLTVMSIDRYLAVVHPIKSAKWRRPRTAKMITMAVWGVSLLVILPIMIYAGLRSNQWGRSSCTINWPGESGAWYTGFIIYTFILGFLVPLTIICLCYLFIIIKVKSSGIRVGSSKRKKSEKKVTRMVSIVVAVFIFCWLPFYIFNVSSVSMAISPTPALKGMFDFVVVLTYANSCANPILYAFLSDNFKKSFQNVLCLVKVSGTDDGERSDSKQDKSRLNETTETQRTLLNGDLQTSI
UniProt P35346: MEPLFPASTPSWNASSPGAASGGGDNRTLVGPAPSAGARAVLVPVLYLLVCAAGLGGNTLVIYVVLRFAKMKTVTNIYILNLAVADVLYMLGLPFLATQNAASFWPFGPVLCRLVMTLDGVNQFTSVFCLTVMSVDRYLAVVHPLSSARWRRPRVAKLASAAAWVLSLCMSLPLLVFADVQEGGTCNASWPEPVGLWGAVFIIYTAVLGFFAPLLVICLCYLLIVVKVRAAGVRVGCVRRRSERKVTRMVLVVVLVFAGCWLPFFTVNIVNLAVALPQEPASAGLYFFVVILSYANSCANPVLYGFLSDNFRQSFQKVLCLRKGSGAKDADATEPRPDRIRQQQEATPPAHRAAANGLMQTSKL
UniProt P32745: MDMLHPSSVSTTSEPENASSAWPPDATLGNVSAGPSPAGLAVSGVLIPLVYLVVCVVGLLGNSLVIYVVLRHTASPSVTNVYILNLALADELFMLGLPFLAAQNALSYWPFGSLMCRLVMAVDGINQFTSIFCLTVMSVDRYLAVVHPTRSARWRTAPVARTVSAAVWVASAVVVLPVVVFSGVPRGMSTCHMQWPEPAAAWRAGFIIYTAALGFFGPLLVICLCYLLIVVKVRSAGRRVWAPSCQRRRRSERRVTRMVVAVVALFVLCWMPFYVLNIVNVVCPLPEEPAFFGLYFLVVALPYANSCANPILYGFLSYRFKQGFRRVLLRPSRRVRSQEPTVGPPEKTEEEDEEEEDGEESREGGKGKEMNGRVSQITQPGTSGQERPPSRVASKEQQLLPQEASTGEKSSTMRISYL
UniProt P30872: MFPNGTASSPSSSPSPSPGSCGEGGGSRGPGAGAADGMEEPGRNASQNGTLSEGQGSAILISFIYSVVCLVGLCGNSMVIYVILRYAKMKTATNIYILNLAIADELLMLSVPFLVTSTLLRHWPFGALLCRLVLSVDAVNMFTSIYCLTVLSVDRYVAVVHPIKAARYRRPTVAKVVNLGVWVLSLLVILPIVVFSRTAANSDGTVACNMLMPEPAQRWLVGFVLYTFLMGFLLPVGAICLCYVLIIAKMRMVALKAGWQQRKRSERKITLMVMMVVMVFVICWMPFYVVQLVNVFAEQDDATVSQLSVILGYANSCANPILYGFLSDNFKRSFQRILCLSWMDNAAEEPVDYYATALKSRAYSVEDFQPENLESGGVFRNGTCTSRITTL

Columns and labels:
[1] = Pharmacokinetics test with rats (intravenous and subcutaneous administration); details: rats; for BA: subcutaneous vs intravenous
[2] = target: T1, SSTR2 (Homo sapiens, UniProt P30874)
[3] = target: T2, SSTR5 (Homo sapiens, UniProt P35346)
[4] = target: T3, SSTR3 (Homo sapiens, UniProt P32745)
[5] = target: T4, SSTR1 (Homo sapiens, UniProt P30872)
[6] = system: growth hormone (GH) production; assay: GH production suppression test with rats; assay type: in vivo; details: Table 8 (Example 87), vehicle 1012
[7] = target: T1, SSTR2; assay: Competitive binding assay, SSTR2; details: Table 3B, Example 67-2, competitive binding assay; for IC50: read-out: SSTR2 IC50; for Ki: read-out: SSTR2 Ki
[8] = target: T3, SSTR3; assay: Competitive binding assay, SSTR3; details: for IC50: read-out: SSTR3 IC50
[9] = target: T2, SSTR5; assay: Competitive binding assay, SSTR5; details: for IC50: read-out: SSTR5 IC50
[10] = target: T4, SSTR1; assay: Competitive binding assay, SSTR1; details: for IC50: read-out: SSTR1 IC50
[11] = Table 5A (Examples 69-72), spread in the line below
[12] = BA=(AUC(sc)/Dose(sc))/(AUC(iv)/Dose(iv)), Table 5A
[13] = Table 3B, Example 67-2, competitive binding assay
[14] = read-out: SSTR5 Ki, Table 3B, Example 67-2, competitive binding assay
[15] = read-out: SSTR1 Ki, Table 3B, Example 67-2, competitive binding assay
[16] = read-out: SSTR3 Ki, Table 3B, Example 67-2, competitive binding assay

Row | Substance | IC50 [7] | Ki [7] | IC50 [8, 13] | IC50 [9, 13] | Ki [9, 14] | IC50 [10, 13] | Ki [10, 15] | Ki [8, 16] | further results
1 | 29C(disialo)-SRIF28 [Example 13] |  |  |  |  |  |  |  |  | Intravenous administration C0 ([1]; Tables 5B-5F (Examples 73-84)): 359 nM; Intravenous administration MRT ([1]; Tables 5B-5F (Examples 73-84)): 25.3 min; Intravenous administration T1/2 ([1]; Tables 5B-5F (Examples 73-84)): 23.7 min; IC50 [2]: 0.738 nM; Ki [2]: 0.392 nM; IC50 [3]: 3.73 nM; Ki [3]: 2.11 nM; IC50 [4]: 7 nM; Ki [4]: 2.39 nM; IC50 [5]: 4.43 nM; Ki [5]: 3.67 nM
2 | 30C(disialo)-SRIF28 [Example 14] |  |  |  |  |  |  |  |  | IC50 [2]: 0.912 nM; Ki [2]: 0.275 nM; IC50 [4]: 6.91 nM; Ki [4]: 2.36 nM; IC50 [5]: 4.21 nM; Ki [5]: 3.48 nM
3 | A9C(disialo)-D-Trp22-SRIF28 [Example 16] |  |  |  |  |  |  |  |  | IC50 [2]: 0.0396 nM; Ki [2]: 0.021 nM; IC50 [3]: 0.194 nM; Ki [3]: 0.11 nM; IC50 [4]: 0.256 nM; Ki [4]: 0.0876 nM; IC50 [5]: 6.92 nM; Ki [5]: 6.73 nM
4 | A9C(disialo)-SRIF28 [Example 3] |  |  |  |  |  |  |  |  | Intravenous administration AUC [1, 11]: 4083 nM·min; Intravenous administration C0 [1, 11]: 547 nM; Intravenous administration MRT [1, 11]: 25.2 min; Intravenous administration t1/2 [1, 11]: 19.9 min; Subcutaneous administration AUC [1, 11]: 2462 nM·min; Subcutaneous administration Cmax [1, 11]: 30.2 nM; Subcutaneous administration MRT [1, 11]: 55.6 min; Subcutaneous administration t1/2 [1, 11]: 30.3 min; BA [1, 12]: 60%; GH ([6]; dose 1 nmol/kg): 577 ng/mL; GH ([6]; dose 10 nmol/kg): 20 ng/mL; IC50 [2]: 0.0741 nM; Ki [2]: 0.0394 nM; IC50 [3]: 0.471 nM; Ki [3]: 0.266 nM; IC50 [4]: 0.593 nM; Ki [4]: 0.203 nM; IC50 [5]: 2.08 nM; Ki [5]: 1.72 nM
5 | A15C(disialo)-SRIF28 [Example 7] | 0.938 nM | 0.498 nM | 3.49 nM | 3.84 nM | 2.17 nM | 11.4 nM | 9.43 nM |  | 
6 | Azido-S1C(disialo)-SRIF28 [Example 46] | 1.29 nM | 0.69 nM | 3.17 nM | 0.84 nM | 0.47 nM | 8.82 nM |  | 1.09 nM | 
7 | Biotin-PEG linker-S1C(disialo)-SRIF28 [Example 45] | 1.86 nM | 1.04 nM | 3.41 nM | 2 nM | 1.13 nM | 9.41 nM | 7.39 nM |  | 
8 | Biotin-S1C(disialo)-SRIF28 [Example 44] | 1.68 nM | 0.89 nM |  | 2.42 nM | 1.37 nM |  | 9.05 nM | 1 nM | 
9 | C(disialo(aminoethylamide))/S1C(disialo)-SRIF28 [Example 65] |  |  |  |  |  |  |  |  | Intravenous administration AUC ([1]; Tables 5B-5F (Examples 73-84)): 3742 nM·min; Intravenous administration C0 ([1]; Tables 5B-5F (Examples 73-84)): 518 nM; Intravenous administration MRT ([1]; Tables 5B-5F (Examples 73-84)): 20.5 min; Intravenous administration T1/2 ([1]; Tables 5B-5F (Examples 73-84)): 22.5 min; Subcutaneous administration AUC ([1]; Tables 5B-5F (Examples 73-84)): 1289 nM·min; Subcutaneous administration Cmax ([1]; Tables 5B-5F (Examples 73-84)): 16.2 nM; Subcutaneous administration MRT ([1]; Tables 5B-5F (Examples 73-84)): 64.7 min; Subcutaneous administration T1/2 ([1]; Tables 5B-5F (Examples 73-84)): 42.3 min; BA ([1]; Tables 5B-5F (Examples 73-84)): 34%
10 | C(disialo)-SRIF28 [Example 34] | 0.478 nM | 0.255 nM | 2.55 nM | 2.62 nM | 1.48 nM | 5.57 nM | 4.61 nM | 0.87 nM | 
11 | E12C(disialo)-SRIF28 [Example 4] |  |  |  |  |  |  |  |  | BA ([1]; Tables 5B-5F (Examples 73-84)): 27%; IC50 [3]: 0.376 nM; Ki [3]: 0.212 nM; IC50 [4]: 0.362 nM; Ki [4]: 0.124 nM; IC50 [5]: 1.7 nM; Ki [5]: 1.4 nM
12 | F25C(disialo)-SRIF28 [Example 38] | > 1000 nM | > 531 nM | > 1000 nM | 53 nM |  | > 1000 nM | > 828 nM | > 342 nM | Ki ([9]; read-out: Ki value against SSTR5, Example 67-2 (text on Table 3B)): 33 nM
13 | G16C(disialo)-SRIF28 [Example 8] | 1.22 nM | 0.646 nM | 3.12 nM | 5.67 nM | 3.21 nM | 17.4 nM | 14.4 nM |  | 
14 | K18C(disialo)-SRIF28 [Example 9] |  | 6.51 nM | 14.7 nM | 160 nM | 95 nM | 45.4 nM | 37.6 nM | 5.03 nM | 
15 | N5N(disialo)-SRIF28 [Example 30] |  |  |  |  |  |  |  |  | IC50 [2]: 0.0685 nM; Ki [2]: 0.0364 nM; IC50 [3]: 0.465 nM; Ki [3]: 0.263 nM; IC50 [4]: 0.579 nM; Ki [4]: 0.198 nM; Ki [5]: 2.5 nM
16 | R11C(disialo)-SRIF28 [Example 35] | 1.38 nM | 0.735 nM | 6.34 nM | 3.65 nM |  | 22 nM | 18.2 nM | 2.17 nM | 
17 | S1-2C(disialo(Bn))-SRIF28 [Example 62] |  | 0.44 nM | 2.58 nM |  | 1.47 nM |  | 4.97 nM | 0.88 nM | Intravenous administration AUC ([1]; Tables 5B-5F (Examples 73-84)): 5525 nM·min; Intravenous administration C0 ([1]; Tables 5B-5F (Examples 73-84)): 807 nM; Intravenous administration MRT ([1]; Tables 5B-5F (Examples 73-84)): 20.7 min; Intravenous administration T1/2 ([1]; Tables 5B-5F (Examples 73-84)): 25.6 min; Subcutaneous administration AUC ([1]; Tables 5B-5F (Examples 73-84)): 1843 nM·min; Subcutaneous administration Cmax ([1]; Tables 5B-5F (Examples 73-84)): 21.5 nM; Subcutaneous administration MRT ([1]; Tables 5B-5F (Examples 73-84)): 59.4 min; Subcutaneous administration T1/2 ([1]; Tables 5B-5F (Examples 73-84)): 33.9 min; BA ([1]; Tables 5B-5F (Examples 73-84)): 33%
18 | S1-2C(disialo(amide))-SRIF28 [Example 61] |  | 0.44 nM | 2.06 nM | 2.67 nM | 1.51 nM | 6.92 nM | 5.73 nM | 0.71 nM | Intravenous administration AUC ([1]; Tables 5B-5F (Examples 73-84)): 5268 nM·min; Intravenous administration C0 ([1]; Tables 5B-5F (Examples 73-84)): 737 nM; Intravenous administration MRT ([1]; Tables 5B-5F (Examples 73-84)): 20.5 min; Intravenous administration T1/2 ([1]; Tables 5B-5F (Examples 73-84)): 23.8 min; Subcutaneous administration AUC ([1]; Tables 5B-5F (Examples 73-84)): 1297 nM·min; Subcutaneous administration Cmax ([1]; Tables 5B-5F (Examples 73-84)): 16.3 nM; Subcutaneous administration MRT ([1]; Tables 5B-5F (Examples 73-84)): 55.8 min; Subcutaneous administration T1/2 ([1]; Tables 5B-5F (Examples 73-84)): 33.1 min; BA ([1]; Tables 5B-5F (Examples 73-84)): 25%
19 | S1-4C(disialo)-SRIF28 [Example 66] | 3.76 nM | 2 nM | 10 nM | 10 nM | 5.82 nM |  | 100 nM | 3.43 nM | extension of t1/2 compared to the non-glycosylated form (SRIF28 or SRIF14) ([1]; administered intravenously): 48 folds; increase of AUC compared to the non-glycosylated form (SRIF28 or SRIF14) ([1]; administered intravenously): 15 folds; Intravenous administration AUC ([1]; Tables 5B-5F (Examples 73-84)): 7070 nM·min; Intravenous administration C0 ([1]; Tables 5B-5F (Examples 73-84)): 1007 nM; Intravenous administration MRT ([1]; Tables 5B-5F (Examples 73-84)): 25.2 min; Intravenous administration T1/2 ([1]; Tables 5B-5F (Examples 73-84)): 63.5 min; Subcutaneous administration AUC ([1]; Tables 5B-5F (Examples 73-84)): 4554 nM·min; Subcutaneous administration Cmax ([1]; Tables 5B-5F (Examples 73-84)): 22.0 nM; Subcutaneous administration MRT ([1]; Tables 5B-5F (Examples 73-84)): 172 min; Subcutaneous administration T1/2 ([1]; Tables 5B-5F (Examples 73-84)): 119 min; BA ([1]; Tables 5B-5F (Examples 73-84)): 64%
20 | S1C(disialo (hexadecylamide))-SRIF28 [Example 60] | 1.04 nM | 0.55 nM |  | 37 nM | 21 nM | 5.53 nM | 4.57 nM | 3.75 nM | 
21 | S1C(disialo)-F25Y-SRIF28 [Example 41] | 0.31 nM | 0.16 nM | 0.48 nM | 1.09 nM | 0.62 nM | 1.77 nM | 1.46 nM | 0.16 nM | 
22 | S1C(disialo).R13C(disialo)-SRIF28 [Example 22] |  |  |  |  |  |  |  |  | Intravenous administration AUC [1, 11]: 4029 nM·min; Intravenous administration C0 [1, 11]: 822 nM; Intravenous administration MRT [1, 11]: 20.6 min; Intravenous administration t1/2 [1, 11]: 23.4 min; Subcutaneous administration AUC [1, 11]: 3407 nM·min; Subcutaneous administration Cmax [1, 11]: 38.7 nM; Subcutaneous administration MRT [1, 11]: 67.7 min; Subcutaneous administration t1/2 [1, 11]: 39.6 min; BA [1, 12]: 85%; IC50 [2]: 6.28 nM; IC50 [3]: 14.7 nM; Ki [3]: 8.33 nM; Ki [4]: 3.77 nM; IC50 [5]: 177 nM; Ki [5]: 147 nM
23 | S1N(disialo).N19C(diMan)-SRIF28 [Example 64] | 5.65 nM | 3 nM | 3.9 nM | 8.53 nM | 4.82 nM | 35 nM | 29 nM | 1.33 nM | 
24 | S27C(disialo)-SRIF28 [Example 39] | 0.326 nM | 0.17 nM | 6.77 nM | 4.94 nM | 2.8 nM | 28.4 nM | 23.5 nM | 2.31 nM | 
25 | T26C(disialo)-SRIF28 [Example 12] | 310 nM | 160 nM | 21.7 nM | 480 nM | 230 nM | 21.6 nM |  |  | Ki ([8]; read-out: Ki value against SSTR3, Example 67-2 (text on Table 3B)): 7.44 nM; Ki ([10]; read-out: Ki value against SSTR1, Example 67-2 (text on Table 3B)): 17.9 nM
